Experimental data published in PubChem BioAssay AID504634 (The Scripps Research Institute Molecular Screening Center, 2011).
Only a part is listed here, and it is no random draw. Activity calls are given as the source filed them. Rule as the data show it: active = inhibition mostly above about 23% (no sharp cut-off); inactive = mostly below about 18%.

Amino acid sequences for entries named in this document (tags omitted).
UniProt P47898, whole entry, looked up: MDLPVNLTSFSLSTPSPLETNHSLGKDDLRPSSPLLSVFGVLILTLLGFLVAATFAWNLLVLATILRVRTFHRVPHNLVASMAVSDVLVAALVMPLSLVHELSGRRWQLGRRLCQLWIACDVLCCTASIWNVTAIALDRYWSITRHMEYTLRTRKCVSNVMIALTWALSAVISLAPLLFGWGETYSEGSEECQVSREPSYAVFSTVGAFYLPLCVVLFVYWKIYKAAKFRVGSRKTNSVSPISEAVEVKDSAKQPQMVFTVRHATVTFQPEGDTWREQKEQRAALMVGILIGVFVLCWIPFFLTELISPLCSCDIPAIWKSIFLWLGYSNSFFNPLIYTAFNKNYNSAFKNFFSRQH

Each compound was assayed against 5-hydroxytryptamine receptor 5A (Homo sapiens) (UniProt P47898) (assay: inverse agonism at human 5-HT5A receptor – cell-based, luminescence, full-deck HTS, counter-screen for OPRM1-OPRD1 heterodimer inverse agonist project, primary screen (AID 504634;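 also: 0% = cells with DMSO and 100% = no-cell wells with DMSO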)). Settings: HTR5A cell line, at 9.3 µM, hits give high values.
`COc1ccccc1NS(=O)(=O)c1cc(NC(=O)Cn2cnc3c2c(=O)n(C)c(=O)n3C)ccc1C` was tested, and the inhibition was inactive: -11.2%. In the case of `Cn1c(=O)[nH]c(=O)c2c1nc(SCc1ccccc1Cl)n2CC(N)=O`, the inhibition is reported as inactive: 3.01%. For `COc1ccc(CNC(=O)Cn2cnc3c(=O)n(C)c(=O)n(C)c32)cc1`, the inhibition was inactive: -11.9%. With `Cc1ccc2c(c1)[C@@H]1CN(C)CC[C@@H]1N2S(=O)(=O)c1ccc(F)cc1` the inhibition was inactive: -10.9%. For `O=C(Cn1cnc2ccccc21)NCCCN1CCOCC1`, the inhibition was inactive: -21.8%. In the case of `CC(C)[C@H](NC(=O)N1CCn2c1nc1ccccc12)C(=O)N[C@H](C(=O)O)c1ccccc1`, the inhibition is reported as inactive: 15.2%. `CC(C)[C@H](NC(=O)N1CCn2c1nc1ccccc12)C(=O)NCc1ccc2c(c1)OCO2` was tested, and the inhibition was inactive: 10.4%. For `Cn1c(=O)c2ncn(CC(=O)NC3CCCCCC3)c2n(C)c1=O`, the inhibition was inactive: -8.46%. With `Cn1c(=O)n(Cc2ccc(Cl)cc2)c(=O)c2c1nc1n2CCN1Cc1ccco1` the inhibition was inactive: -4.09%. In the case of `O=P1(N(CCCl)CCCl)OCCCS1` (stereo not given), the inhibition is reported as inactive: -0.19%. For `O=[N+]([O-])c1ccccc1NC1CCN(Cc2ccccc2)CC1`, the inhibition was inactive: 4.04%. In the case of `Cc1ccc2c(c1)C1CN(C)CCC1N2C(=O)Nc1ccc(Cl)cc1` (stereo not given), the inhibition is reported as inactive: 2.17%. `CSc1nc(N)nc2c1ncn2CC(=O)N[C@H](CO)Cc1c[nH]c2ccccc12` was tested, and the inhibition was inactive: 11.4%. For `Cc1ccc2c(c1)C1CN(C)CCC1N2C(=O)c1cccnc1Cl` (stereo not given), the inhibition was inactive: 4.07%. For `N#CCC(=O)N/N=C\c1ccccc1OC/C=C/c1ccccc1`, the inhibition was inactive: -11%. For `Cc1ccc2c(c1)C1CN(C)CCC1N2CC(=O)N(C)c1ccccc1` (stereo not given), the inhibition was inactive: -12.7%. `COCCCNC(=O)Cn1cnc2c(OCc3ccccc3)ncnc21` was tested, and the inhibition was inactive: -14%. `CCOC(=O)Nc1ccc2c(c1)nc1n2CCN(CCOC)C1` was tested, and the inhibition was inactive: -22.3%. With `COc1ccc(Cc2nnc(NC(=O)Cn3cnc4c3c(=O)n(C)c(=O)n4C)s2)cc1` the inhibition was inactive: -11.6%. In the case of `CCN(CC)CCn1c(=N)n(CC(O)c2ccco2)c2ccccc21` (stereo not given), the inhibition is reported as inactive: -4.47%. For `CC(C)Oc1cccnc1N(C)C1CCN(Cc2ccccc2)CC1`, the inhibition was inactive: 9.37%. `Cn1c(=O)c2c(nc(NCCc3ccccc3)n2CC(=O)NCCc2ccccc2)n(C)c1=O` was tested, and the inhibition was inactive: 4.98%. In the case of `COC(=O)C[C@H](NC(=O)Cn1cnc2c(SC)nc(N)nc21)C(=O)OC`, the inhibition is reported as inactive: -14.9%. For `Cc1ccc(-c2csc(N3CCN(c4cc5c(cc4Cl)nc(C)n5CCN4CCCCC4)CC3)n2)cc1`, the inhibition was inactive: -10.8%. For `Cc1cc(NC(=O)CSc2nc3ccccc3n2CC(=O)N2CCCCC2)no1`, the inhibition was inactive: 10.1%. In the case of `O=C(CCCN1CCC2(CC1)C(=O)NCN2c1ccccc1)c1ccc(F)cc1`, the inhibition is reported as inactive: -2.42%. `COc1cc(NC(=O)Cn2c(-c3cncs3)nc3ccccc32)cc(OC)c1OC` was tested, and the inhibition was inactive: -3.54%. With `Cn1c(=O)c2c(nc(CN3CCN(c4ccc(F)cc4)CC3)n2CCN2CCOCC2)n(C)c1=O` the inhibition was inactive: -4.07%. With `COC(=O)c1ccc(N2C(=O)CC(N3CCC(n4c(=O)[nH]c5ccccc54)CC3)C2=O)cc1` (stereo not given) the inhibition was inactive: -25.1%. `COc1cccc(NC(=O)Cn2c(-c3cncs3)nc3ccccc32)c1` was tested, and the inhibition was inactive: 5.66%. In the case of `CCc1nc2ccccc2n1CC(=O)NC1CCS(=O)(=O)C1` (stereo not given), the inhibition is reported as inactive: -1.25%. With `COc1cccc(CNC(=O)CCNC(=O)N2CCn3c2nc2ccccc23)c1` the inhibition was inactive: 6.86%. `O=C1CCC(=O)N1c1ccc(NC2CCN(Cc3ccccc3)CC2)c([N+](=O)[O-])c1` was tested, and the inhibition was inactive: 7.26%. With `O=C(c1ccccc1Br)N1CCn2c1nc1ccccc12` the inhibition was inactive: -1.75%. In the case of `Cc1cccc(NC(=O)Cn2c(/C=C/c3ccccc3)nc3ccccc32)c1`, the inhibition is reported as inactive: -0.71%. For `O=C(O)CNc1ccc([As](=O)(O)O)cc1`, the inhibition was inactive: -3.06%. In the case of `Cc1nn(CC(=O)Nc2ccc3c(c2)nc2n3CCN(C3CCCCC3)C2)c(=O)c2ccccc12`, the inhibition is reported as inactive: 19.8%. In the case of `Cc1noc(C)c1S(=O)(=O)N(CC(=O)N1CCn2c1nc1ccccc12)c1ccc(C(C)C)cc1`, the inhibition is reported as inactive: 4.93%. `O=[N+]([O-])c1ccc(NC2CCN(Cc3ccccc3)CC2)c2ccncc12` was tested, and the inhibition was inactive: -17.7%. In the case of `CCOC(=O)N1CCN(c2c(NC3CCN(Cc4ccccc4)CC3)c(=O)c2=O)CC1`, the inhibition is reported as inactive: 9.41%. `CC(C)Sc1nc2ccccc2n1CC(N)=O` was tested, and the inhibition was inactive: 10.5%. In the case of `O=C(Cn1cnc2ccccc21)N1CCN(S(=O)(=O)c2ccccc2)CC1`, the inhibition is reported as inactive: -6.16%. For `CN(C)C1(c2nnnn2-c2ccc(Cl)cc2)CCCCC1`, the inhibition was inactive: -23.5%. In the case of `O=[N+]([O-])c1cccc(NC2=NCC(CBr)S2)c1` (stereo not given), the inhibition is reported as inactive: 2.19%. `COc1ccc(Cc2nc3ccccc3n2CC(=O)N/N=C/c2ccc(O)cc2)cc1OC` was tested, and the inhibition was inactive: 1.8%.
